Here are results for one molecule from article PMC10071563, “The structure of the complex between the arsenite oxidase from Pseudorhizobium banfieldiae sp. strain NT-26 and its native electron acceptor cytochrome c 552” (2023).

Protein sequences, listed by entry. Tags and fused reporters are not part of them. Lines headed by an entry give the natural chain unless they say otherwise; changes in a name come on top.
UniProt Q6VAL8: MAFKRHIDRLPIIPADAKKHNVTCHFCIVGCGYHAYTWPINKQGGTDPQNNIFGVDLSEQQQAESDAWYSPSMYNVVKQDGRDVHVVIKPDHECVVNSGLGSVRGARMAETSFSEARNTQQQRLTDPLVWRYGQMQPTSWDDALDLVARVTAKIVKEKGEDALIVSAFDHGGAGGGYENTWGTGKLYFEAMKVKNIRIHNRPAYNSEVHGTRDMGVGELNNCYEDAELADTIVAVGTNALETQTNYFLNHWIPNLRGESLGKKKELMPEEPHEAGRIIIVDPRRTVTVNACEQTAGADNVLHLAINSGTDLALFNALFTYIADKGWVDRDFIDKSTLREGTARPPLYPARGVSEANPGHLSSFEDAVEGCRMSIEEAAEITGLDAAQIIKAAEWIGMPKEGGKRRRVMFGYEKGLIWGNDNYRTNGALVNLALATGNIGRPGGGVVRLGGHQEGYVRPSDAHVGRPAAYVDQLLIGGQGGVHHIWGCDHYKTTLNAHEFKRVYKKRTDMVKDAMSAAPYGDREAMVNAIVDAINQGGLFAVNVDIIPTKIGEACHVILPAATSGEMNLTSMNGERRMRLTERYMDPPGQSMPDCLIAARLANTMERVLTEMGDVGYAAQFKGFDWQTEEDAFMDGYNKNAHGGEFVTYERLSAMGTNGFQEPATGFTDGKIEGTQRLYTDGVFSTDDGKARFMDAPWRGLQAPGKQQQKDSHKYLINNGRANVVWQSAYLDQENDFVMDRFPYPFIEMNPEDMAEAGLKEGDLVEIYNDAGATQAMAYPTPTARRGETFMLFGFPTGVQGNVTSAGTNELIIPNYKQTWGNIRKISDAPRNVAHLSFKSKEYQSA

In this test the target is AioAB (arsenite oxidase) (Pseudorhizobium banfieldiae, UniProt Q6VAL8). The test can be described thus: steady-state kinetics, cytochrome c552 reduction at […] nm. Conditions: read-out: K m(arsenite); cytochrome c552 20 µM as electron acceptor; 50 mM Tris-HCl pH 8.0; 2 nM enzyme.

SMILES strings stand for the structures.

On to `O[As](O)O`, for which the Km came out at 9.06 µM.
